Experimental data as given in PubChem BioAssay AID1835 (Johns Hopkins Ion Channel Center, 2009).
This is a selection; strong and weak results do not stand in their true shares. Activity calls are given as the source filed them.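 Rule for the calls: active = median signal gain over dofetilide-blocked control wells reaching their mean plus 3 SD, so readout 1 at least 0; inactive = the rest.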

By UniProt entry, the sequences of proteins in these tests, tags left out. Where a name states a change or a piece, a line headed by the entry shows the natural chain unless it says otherwise.
UniProt Q12809: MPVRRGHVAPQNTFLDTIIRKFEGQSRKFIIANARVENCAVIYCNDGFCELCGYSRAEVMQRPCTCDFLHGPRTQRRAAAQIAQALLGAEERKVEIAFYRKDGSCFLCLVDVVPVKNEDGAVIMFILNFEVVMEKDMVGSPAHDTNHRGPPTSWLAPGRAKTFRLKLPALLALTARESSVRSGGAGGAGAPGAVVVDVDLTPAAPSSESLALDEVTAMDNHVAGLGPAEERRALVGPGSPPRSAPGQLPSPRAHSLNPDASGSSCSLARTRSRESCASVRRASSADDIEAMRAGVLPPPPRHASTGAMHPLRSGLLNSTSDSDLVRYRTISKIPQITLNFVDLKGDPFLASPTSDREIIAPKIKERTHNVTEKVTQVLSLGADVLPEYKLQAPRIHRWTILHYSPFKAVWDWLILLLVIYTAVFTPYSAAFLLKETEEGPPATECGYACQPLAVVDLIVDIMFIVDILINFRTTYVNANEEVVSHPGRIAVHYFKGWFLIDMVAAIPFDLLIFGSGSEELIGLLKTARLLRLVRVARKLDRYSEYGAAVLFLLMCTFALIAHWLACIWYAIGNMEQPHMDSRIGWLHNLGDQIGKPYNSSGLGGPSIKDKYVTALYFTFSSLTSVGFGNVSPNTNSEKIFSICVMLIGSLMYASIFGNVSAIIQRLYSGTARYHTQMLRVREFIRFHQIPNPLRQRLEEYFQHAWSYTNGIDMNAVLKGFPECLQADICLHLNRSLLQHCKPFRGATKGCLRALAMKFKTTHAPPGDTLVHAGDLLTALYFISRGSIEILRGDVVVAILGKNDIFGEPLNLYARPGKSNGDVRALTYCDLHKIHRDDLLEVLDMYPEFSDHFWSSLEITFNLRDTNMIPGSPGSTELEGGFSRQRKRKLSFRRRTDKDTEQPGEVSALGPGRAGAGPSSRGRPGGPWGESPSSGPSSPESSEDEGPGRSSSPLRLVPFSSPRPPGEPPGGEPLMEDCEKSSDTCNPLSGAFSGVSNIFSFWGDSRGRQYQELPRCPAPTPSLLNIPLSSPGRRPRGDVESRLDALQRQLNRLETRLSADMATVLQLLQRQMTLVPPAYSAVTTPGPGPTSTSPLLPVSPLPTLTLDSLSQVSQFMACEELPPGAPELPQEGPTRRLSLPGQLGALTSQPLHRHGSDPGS

Each molecule was assayed against Voltage-gated inwardly rectifying potassium channel KCNH2 (Homo sapiens) (UniProt Q12809) (assay: hERG protection against dofetilide inhibition, confirmation, cell-based, thallium flux, duplicate retest, dofetilide IC70 (AID 1835)). Details: hERG cell line, FluxOR thallium flux, dofetilide-blocked; at 10 µM; hits give high values.

| Structure (SMILES) | activity increase over dofetilide control, less the hit threshold |
| --- | --- |
| Cc1ccc(NP(=O)(Oc2ccccc2F)Oc2ccccc2F)nc1 | inactive: -6% |
